Target: T1, PPARγ ligand binding domain (204–477) (Homo sapiens, UniProt P37231)
T1 construct: GST (N, cleaved yes); made in house; host or cells: E. coli BL21(DE3)
Test: Surface plasmon resonance (SPR) analysis of fatty acid binding to immobilized PPARγ LBD
Protocol: The protein was firstly purified using a glutathione Sephararose 4B column, followed by PreScission protease cleavage to remove the GST-tag. […] The finally collected protein in 20 mM Tirs, pH8.0, 150 mM NaCl and 2 mM DTT was concentrated to 20 mg/ml. The purity was checked by SDS-PAGE and protein was stored at − 80 °C for use.
PPARγ (0.05 mg/ml) were coupled onto CM5 sensor chips according to amine coupling procedure from the manufacturer’s manual. […] A reference channel was generated at same conditions without protein injection and used as a blank control to correct the instrument or buffer artifacts. Fatty acids were dissolved in DMSO and diluted with concentration ranging from 0.78 to 50 μM, and injected at a flowrate of 40 μL/min. Each sensorgram consists of an association phase (120 s), indicating the binding of the injected compound to the protein, followed by a dissociation phase (300 s) during which the running buffer (10 mM phosphate buffer, 150 mM NaCl, 5% DMSO, 0.05% Tween 20, pH 7.4) is passed over and the bound compounds were eluted from the chip surface. The Kd was calculated by steady-state binding fitting method in Biacore T200 evaluate the software.

Chains of the proteins cited; added tags and fusions are not shown. Residues count along the entry.
UniProt P37231, 232-505: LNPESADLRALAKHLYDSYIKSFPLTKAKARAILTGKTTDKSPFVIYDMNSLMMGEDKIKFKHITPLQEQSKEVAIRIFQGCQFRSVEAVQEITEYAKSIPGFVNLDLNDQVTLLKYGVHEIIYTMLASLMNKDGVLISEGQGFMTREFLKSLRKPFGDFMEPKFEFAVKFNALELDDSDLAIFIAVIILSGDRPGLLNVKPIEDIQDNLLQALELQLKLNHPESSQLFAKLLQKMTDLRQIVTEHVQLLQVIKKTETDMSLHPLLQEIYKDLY

pinolenic acid [PLA] was tested, and the Rmax (SPR steady-state fit, FUA: chip coupled with 12000RU) was > 10,000.00 RU, the “binding to PPARγ in SPR (in words)” value (compared with DHA and EPA) was “weaker binding than DHA” and the Kd (steady-state fit, Biacore T200, chip about 6500 RU (FUA: chip coupled with 12000RU PPARγ LBD)) was greater than 10 mM.

From article PMC7811525, “Virtual screening of potentially endocrine-disrupting chemicals against nuclear receptors and its application to identify PPARγ-bound fatty acids” (Archives of Toxicology, 2020)
